BindingDB's records for 10206553 (Sankyo, 1999)
pIC50: −log10 of the molar value.

Sequences of proteins named here, by UniProt entry; tags and fusion partners are left off.
UniProt Q64077, whole entry, looked up: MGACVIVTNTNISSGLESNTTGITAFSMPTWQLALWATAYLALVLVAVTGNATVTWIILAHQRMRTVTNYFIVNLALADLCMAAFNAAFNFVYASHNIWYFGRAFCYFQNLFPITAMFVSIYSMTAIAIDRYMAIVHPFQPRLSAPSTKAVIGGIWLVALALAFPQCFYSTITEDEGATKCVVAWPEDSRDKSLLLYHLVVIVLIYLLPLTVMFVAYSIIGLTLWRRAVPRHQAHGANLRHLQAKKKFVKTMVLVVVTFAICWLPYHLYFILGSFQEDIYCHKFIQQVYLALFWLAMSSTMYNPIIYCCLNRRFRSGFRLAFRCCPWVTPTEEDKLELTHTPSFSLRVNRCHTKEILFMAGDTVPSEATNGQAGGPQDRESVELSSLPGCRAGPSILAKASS

Target: Substance-K receptor (Cavia porcellus, UniProt Q64077)
Assay: Inhibitory activity against Neurokinin 2 (NK2) receptor from guinea pig ileum

COc1cc(C(=O)N2CO[C@](CCN3CCC4(CC3)C(=O)NCN4c3ccccc3)(c3ccc(Cl)c(Cl)c3)C2)cc(OC)c1OC
pIC50: 6.80
